Source: US20220289794A1, “SYNTHETIC ANTIMICROBIAL PEPTIDES” (priority 2019, published 2022)

Assays:
[1] = test system: Klebsiella pneumoniae (KPC, ATCC BAA-1705); test: microbe, parasite or virus in culture; details: ATCCBAA1705, 24 h, read-out: MIC of antibiotic
[2] = test system: Klebsiella pneumoniae (KPC, ATCC BAA-1705)

For `CCC[C@@H]1C[C@@H](C(=O)N[C@@H]([C@H]2O[C@H](SC)[C@H](O)[C@@H](O)[C@H]2O)[C@H](C)Cl)N(C)C1` [Clindamycin], the MIC [1] was > 256 µg/mL, the MIC of antibiotic [2] was > 256 µg/mL and the MIC of antibiotics [2] was >256 µg/mL.
